Screens as filed in PubChem.
ARNT TACC3 PPI: disruptors of human ARNT/TACC3 interaction | Q9Y6A5 | AlphaScreen His-ARNT PAS-B/GST-TACC3 binding, luminescence; TACC3 fragment carries E629A point mutation | inhibition, % at 9.99 µM | hit rate 0.66% among 390,000;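 active = mean inhibition of replicates at least 50% and at least half of replicates each reaching 50%; inconclusive = half or more replicates reach 50% but mean below 50%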;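 also: 0% = complete ARNT plus TACC3 wells and 100% = ARNT alone without TACC3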
PglD inh: PglD (C. jejuni) enzyme inhibition; inhibition, % at 12.5 µM; hit rate 0.098% among 360,000; AID 602405; purified PglD enzyme, DTNB colorimetric CoA detection; in the data active = inhibition above about 16%, passing the limit was not always enough; inconclusive = no clear call, values can overlap the other calls
CAL PDZ FP-1: inhibitors of human CAL PDZ peptide binding; Q9HD26; purified CAL PDZ, TMR-peptide fluorescence polarization, 1 h; inhibition, % at 20 µM; hit rate 0.02% among 330,000; AID 504414;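 active = highest replicate inhibition of at least 40%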;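 also: plate controls were DMSO neutral control wells for no effect and unlabeled competitor peptide control wells for full effect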
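System: purified tagged CAL PDZ domain construct (CerCALP). Schedule: 1 h incubation at room temperature before polarization reading. Medium: 25 mM sodium phosphate pH 7.4, 150 mM NaCl, TCEP, IgG, Thesit. Read-out: percent inhibition from loss of millipolarization. Measured by: FP readout, S and P plane fluorescence. Probe or stimulus: fluorescent TMR peptide probe.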
CAL PDZ FP-2: blocks peptide binding to the human CAL PDZ domain; Q9HD26; purified CAL PDZ, TMR-peptide fluorescence polarization, 1 h; hit rate 0.92% among 300,000; AID 602252; inhibition, % at 24.9 µM;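 active = mean inhibition of at least 30% with at least half of replicates also reaching 30%; inconclusive = no clear call, values can overlap the other calls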;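 also: 0% = DMSO neutral control and 100% = excess unlabeled competitor peptide PRC23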
UUG fidelity: modulators of start codon recognition fidelity in yeast; S. cerevisiae UUG-firefly luciferase reporter, luminescence/redox ratio; AID 602363; 350,000 tested, 0.13% active; activity score, % at 18.7 µM;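 active = replicate mean at a twofold rise or more, about +100% in these data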;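 also: firefly luciferase made from a UUG start codon reports start codon fidelity; reporter light over untreated wells divided by growth signal over untreated wells; some hits fall short of that in this replicate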
Vif inh: HIV Vif inhibition; HEK293T cells, Vif self-association by quenched fluorescence, imaging, 24 h; inhibition, % at 7.49 µM; hit rate 0.35% among 340,000; AID 602346; in the data active = inhibition above about 50%, passing the limit was not always enough; inconclusive = no clear call, values can overlap the other calls; inactive = below about 31%
Numbers without * were called inactive; ? = inconclusive; . = no result. Rows were chosen to be rich in hits. Some 1.6% of all compounds tested hit in one or more screens of this group.

SMILES	ARNT TACC3 PPI	PglD inh	CAL PDZ FP-1	CAL PDZ FP-2	UUG fidelity	Vif inh
O=C1NC(c2ccccn2)Nc2sc3c(c21)CCC3 (stereo not drawn)	65.0*	.	-1.4	-0.9	.	-2.7
O=C1NC(c2ccc(Br)cc2)Nc2sc3c(c21)CCC3 (stereo not drawn)	6.0	11.2	-0.8	-2.8	-1.9	8.3
CC(=O)OCCNc1cc(N2CCN(C)CC2)c2noc3c2c1C(=O)c1ccccc1-3	48.7*	-1.0	0.5	.	-16.7	-8.0
C[C@@H]1CN([C@H](C)CO)C(=O)c2cc(-c3ccccc3F)cnc2O[C@@H]1CN(C)Cc1ccccc1	-4.3	2.2	.	.	3.1	.
NC(=NC(=O)c1ccccc1)N1CCN(C(c2ccccc2)c2ccccc2)CC1	-3.0	-0.8	0.3	89.4*	3.8	-2.8
Cc1ccc(CNc2ccc(O)cc2)cc1	24.3*	1.6	1.9	-1.7	-20.1	-16.9
C/C(=N\NC(=O)c1c(Cl)c(C)nn1C)c1ccc(NC(=O)C2CCC2)cc1	-3.1	-2.8	-1.0	2.4	0.1	25.1
C/C(=N\NC(=O)c1c([N+](=O)[O-])c(C)nn1C)c1ccc(NC(=O)C2CCCC2)cc1	-3.1	2.3	-2.1	-6.4	-14.1	64.2*
C[C@@H](NC(=O)C[C@H]1C[C@H]2c3cc(NS(C)(=O)=O)ccc3O[C@H]2[C@H](CO)O1)c1ccccc1	-7.9	-0.3	.	.	3.5	.
O=C(NC1CCCCC1)C1CCN(c2nccs2)CC1	.	-0.7	-2.0	33.5*	-10.5	2.2
CCN(Cc1ccc(N(C)C)cc1)C(C)C(=O)Nc1ccc(S(=O)(=O)N2CCCC2)cc1 (stereo not drawn)	.	3.5	-0.5	59.7*	-0.3	1.1
CSc1ccccc1NC(=O)CN(C)CC(=O)Nc1ccc(S(=O)(=O)N2CCCC2)cc1	-6.3	0.3	0.5	48.5*	-14.4	9.1
CN(CC(=O)Nc1ccc(S(=O)(=O)N2CCCC2)cc1)CC(=O)Nc1ccc(F)c(F)c1F	-0.4	.	0.1	-3.8	.	-7.7
Cc1ccc(NC(=O)CN(C)C(C)C(=O)Nc2ccc(S(=O)(=O)N3CCCC3)cc2)cc1 (stereo not drawn)	0.3	-2.6	-2.7	-1.9	6.8	-6.5
C[C@@H]1CN([C@H](C)CO)C(=O)Cc2cc(NS(=O)(=O)c3cccs3)ccc2O[C@@H]1CN(C)C(=O)Nc1ccc(C(F)(F)F)cc1	-30.4	-7.4	.	.	-21.1	.
O=C(O)c1ccccc1N=Nc1c(O)[nH]c2ccc([N+](=O)[O-])cc12	46.7*	-1.2	2.0	-1.1	-17.2	-9.8
CNC[C@H]1Oc2ccc(NC(=O)Nc3ccc(OC)cc3)cc2CC(=O)N([C@H](C)CO)C[C@H]1C	9.2	-33.7	.	.	9.5	.
COc1ccc(C2c3ccc(O)cc3Oc3ncn4nc(-c5ccccn5)nc4c32)cc1OC (stereo not drawn)	59.0*	.	-3.2	-6.6	.	-0.9
COc1ccc(C2c3ccc(O)cc3Oc3ncn4nc(-c5ccccn5)nc4c32)cc1 (stereo not drawn)	4.5	4.3	-0.2	7.3	-20.3	?
Cc1ccccc1OCc1nc2ccccc2[nH]1	2.2	.	-0.9	40.5*	.	-0.5
COc1ccccc1OCc1nc2ccccc2[nH]1	-1.2	-6.0	-1.7	-6.0	-21.5	-0.5
CO[C@H]1CN(C)C(=O)c2cc(NC(C)=O)ccc2OC[C@@H](C)N(C(=O)Cc2cccnc2)C[C@H]1C	-12.6	15.4	.	.	-9.5	.
CCN(CC(=O)Nc1c(F)cccc1F)C(=O)Cn1[nH]c(=O)c2ccccc2c1=O	-5.2	2.0	-0.3	77.8*	-7.1	5.2
CCN(CC(=O)Nc1c(F)cccc1F)C(=O)CSCC(=O)Nc1cccc(C)c1	6.8	-5.0	0.0	77.8*	0.1	-2.3
CCN(CC(=O)Nc1c(F)cccc1F)C(=O)c1cccc(-n2cccc2)c1	-0.9	3.3	-2.7	-2.2	-15.7	74.1*
Next section
SMILES	ARNT TACC3 PPI	PglD inh	CAL PDZ FP-1	CAL PDZ FP-2	UUG fidelity	Vif inh
CCN(CC(=O)Nc1c(F)cccc1F)C(=O)CSCC(=O)Nc1ccc(OC)cc1	-3.5	-1.8	-0.5	-2.1	-15.4	2.0
CCN(CC(=O)Nc1ccccc1OC)C(=O)c1cccc(-n2cccc2)c1	9.6	-1.1	-2.0	-1.9	7.2	9.4
CCCN1C[C@H](C)[C@H](OC)CN(C)C(=O)c2cc(NC(=O)NC3CCCCC3)ccc2OC[C@H]1C	3.1	1.3	.	.	8.2	.
CCNC(=O)C[C@H]1CC[C@H](NS(=O)(=O)c2ccc(F)cc2)[C@H](CO)O1	-2.1	-3.2	.	.	-13.5	.
C[C@H]1CCCCO[C@H](CN(C)C(=O)c2ccncc2)[C@@H](C)CN([C@@H](C)CO)C(=O)c2cc(NS(=O)(=O)c3cn(C)cn3)ccc2O1	-4.8	2.3	.	.	3.0	.
C[C@@H]1CN([C@@H](C)CO)C(=O)c2cccc(NS(=O)(=O)c3cccs3)c2O[C@H]1CN(C)CC1CCCCC1	-0.8	-0.8	.	.	6.7	.
O=C(c1cc(COc2ccccc2)on1)N1CCCC(OCc2cccnc2)C1 (stereo not drawn)	-1.0	3.3	-1.4	-3.8	-20.2	0.4
O=C(c1cc(COc2ccccc2)on1)N1CCCC(CN2CCOCC2)C1 (stereo not drawn)	0.9	0.0	-1.1	52.5*	-9.5	3.4
C[C@H](CO)N1C[C@H](C)[C@H](CN(C)C(=O)c2ccncc2)OCc2ccccc2-c2ccccc2C1=O	0.0	1.6	.	.	.	.
CCCCCN1CSC(=S)N(Cc2ccccc2)C1	1.1	.	-0.2	46.3*	.	2.2
O=C1NC(=O)/C(=C\c2ccc(N3CCOCC3)o2)N1	0.9	.	0.6	2.3	.	0.8
O=C1NC(=O)/C(=C/c2ccc(N3CCOCC3)o2)N1	-4.5	.	-0.8	31.1*	.	-11.7
C[C@@H]1CN([C@H](C)CO)C(=O)c2cccc(NC(=O)c3cnccn3)c2O[C@H]1CN(C)C	0.4	-5.6	.	.	-14.0	.
Cc1c([N+](=O)[O-])cc(S(=O)(=O)Nc2ccncc2)cc1[N+](=O)[O-]	-5.0	1.8	-0.7	.	-9.8	65.6*
C[C@@H]1CN([C@@H](C)CO)C(=O)Cc2cc(NC(=O)Nc3ccc(C(F)(F)F)cc3)ccc2O[C@H]1CN(C)C(=O)Nc1cccc2ccccc12	-3.5	2.1	.	.	-4.9	.
CCc1cccc(NC(=O)CCNS(=O)(=O)c2ccc3[nH]c(=O)oc3c2)c1	0.6	-2.7	-1.1	40.1*	-4.4	-1.1
CN(C)c1nc(Nc2ccc(F)cc2)nc(Oc2ccc(F)cc2)n1	-6.4	-2.9	-0.9	-10.2	0.7	4.0
Oc1ccccc1/C=N/NC(=S)NC1CC2C=CC1C2 (stereo not drawn)	63.7*	.	-0.4	-6.2	.	-10.3
Oc1ccccc1C=NNC(=S)Nc1ccc(F)cc1	active	1.6	-2.9	-1.4	-24.7	-8.2
CN(C)c1nc(N/N=C/c2ccccc2O)nc(Nc2ccc(F)cc2)n1	47.0*	.	-0.5	2.8	.	1.0

Six neighbouring entries from above, for reference:
SMILES	ARNT TACC3 PPI	PglD inh	CAL PDZ FP-1	CAL PDZ FP-2	UUG fidelity	Vif inh
C[C@@H]1CN([C@@H](C)CO)C(=O)Cc2cc(NC(=O)Nc3ccc(C(F)(F)F)cc3)ccc2O[C@H]1CN(C)C(=O)Nc1cccc2ccccc12	-3.5	2.1	.	.	-4.9	.
CCc1cccc(NC(=O)CCNS(=O)(=O)c2ccc3[nH]c(=O)oc3c2)c1	0.6	-2.7	-1.1	40.1*	-4.4	-1.1
CN(C)c1nc(Nc2ccc(F)cc2)nc(Oc2ccc(F)cc2)n1	-6.4	-2.9	-0.9	-10.2	0.7	4.0
Oc1ccccc1/C=N/NC(=S)NC1CC2C=CC1C2 (stereo not drawn)	63.7*	.	-0.4	-6.2	.	-10.3
Oc1ccccc1C=NNC(=S)Nc1ccc(F)cc1	active	1.6	-2.9	-1.4	-24.7	-8.2
CN(C)c1nc(N/N=C/c2ccccc2O)nc(Nc2ccc(F)cc2)n1	47.0*	.	-0.5	2.8	.	1.0
